The source of these data is ChEMBL document CHEMBL2390917, “Synthesis and biological evaluation of 2-(5-methyl-4-phenyl-2-oxopyrrolidin-1-yl)-acetamide stereoisomers as novel positive allosteric modulators of sigma-1 receptor” (Bioorg Med Chem, 2013).

Amino acid sequences for entries named in this document (tags omitted).
UniProt P21452, whole entry: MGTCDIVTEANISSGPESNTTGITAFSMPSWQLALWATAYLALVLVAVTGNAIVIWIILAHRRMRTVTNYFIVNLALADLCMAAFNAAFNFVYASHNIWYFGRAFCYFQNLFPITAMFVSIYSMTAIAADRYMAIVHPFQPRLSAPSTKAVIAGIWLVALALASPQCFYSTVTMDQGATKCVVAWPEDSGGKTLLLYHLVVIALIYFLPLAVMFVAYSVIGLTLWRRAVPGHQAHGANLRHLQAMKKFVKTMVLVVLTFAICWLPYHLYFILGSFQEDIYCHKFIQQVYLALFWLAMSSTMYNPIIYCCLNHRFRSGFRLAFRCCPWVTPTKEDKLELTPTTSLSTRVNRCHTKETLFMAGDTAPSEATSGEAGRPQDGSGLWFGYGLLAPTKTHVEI

A word on the IC50: it is the point on the concentration scale where inhibition reaches its midpoint. A higher IC50 goes with weaker potency in that assay.

This test addresses Substance-K receptor (Homo sapiens, UniProt P21452). Briefly: Binding affinity to human NK2 receptor by radioligand displacement assay. In general terms: In a radioligand displacement assay an active substance lowers the binding of a labelled ligand.

For `CCCC[C@H](NC(=O)[C@H](CC(C)C)NC(=O)CNC(=O)[C@@H](NC(=O)[C@H](Cc1ccccc1)NC(=O)[C@H](CO)NC(=O)[C@@H](N)CC(=O)O)C(C)C)C(N)=O`, the IC50 was 2.5 nM.
